# Test results published in patent US11857584B2, “Oncolytic virus growth method and antitumor agent” (KABUSHIKI KAISHA YAKULT HONSHA, priority 2017, dated 2024).
# What was measured:
# [1] = tested on: oxaliplatin-resistant colon cancer cell line (WiDr); details: CVB3 MOI 0, 0.001, 0.01 or 0.1, oxaliplatin 0, 0.5, 1 or 5 μM
# [2] = tested on: oxaliplatin-resistant colon cancer cell line (WiDr); details: oxaliplatin 50 μM, CVA11 MOI=0.01, culturing 72 hours
compound,measurement,setting,value
O=C1[O][Pt]2([NH][C@@H]3CCCC[C@H]3[NH]2)[O]C1=O [oxaliplatin],"antitumor effect (cytotoxicity), crystal violet method",[1],No antitumor effect was observed
same,"antitumor effect (cytotoxicity), crystal violet method",[2],No antitumor effect was observed

# Read-outs that look alike come from different tables or passages of the source.
